Properties, as collected for the OPERA models

From the experimental data distributed with OPERA 2.9.

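OPERA's authors assembled the values from existing databases and did not measure them anew. A listed value is a point estimate from one report or more. Method, purity and exact conditions of the single measurements are not given. The measured form (salt, isomer or mixture) is not always the one drawn. Some entries may be limits or estimates that an upstream database listed as plain numbers.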

Melting points are in °C. Boiling points are in °C, nominally at 760 mmHg. logP is the log10 of the octanol-water partition coefficient; higher is more lipophilic. Solubility in water is on a log10 molar scale (set defined at 25 °C). Vapor pressure is log10 of mmHg; the set covers 15 to 30 °C, mostly 20 to 25 °C. fu is the fraction unbound in human plasma, from 0 to 1. Intrinsic clearance (human, µL/min per 10^6 hepatocytes): higher is faster turnover, and 0 stands for none detected. "n/a" marks a cell with nothing listed here.

* COC(=O)c1ccccc1C(=O)O: plasma fu 0.372; hepatic Clint 0 µL/min/10^6 cells
* C=CC1COC(CC(C)C)O1 (configuration not stated): bp 176.8 °C; logP (octanol/water) 2.5; log solubility -2.18 (log10 mol/L); log VP 0.143 (log10 mmHg)
* CCOC(=O)CC(C)CC(C)(C)C (configuration not stated): logP (octanol/water) 4.59; log solubility -3.823 (log10 mol/L); log VP -0.289 (log10 mmHg)
* CCOC(=O)C1CCC(C(=O)OCC)CC1 (configuration not stated): bp 278 °C; logP (octanol/water) 2.825; log solubility -2.251 (log10 mol/L); log VP -2.824 (log10 mmHg)
* CCCCN(CCC(=O)OCC)C(C)=O: logP (octanol/water) 1.7; log VP -2.953 (log10 mmHg)
* CC(=O)c1ccc(Oc2ccc(Cl)cc2)cc1C(F)(F)F: logP (octanol/water) 4.1; log solubility -5.288 (log10 mol/L)
* ClC1CCCC1: logP (octanol/water) 2.7; log VP 1.474 (log10 mmHg)
* Cc1ccc(S(C)(=O)=O)cc1[N+](=O)[O-]: logP (octanol/water) 0.93; log VP -6.648 (log10 mmHg)
* O=C(Cl)c1ccc(C(=O)Cl)cc1: logP (octanol/water) 0.88; log solubility -4.08 (log10 mol/L); log VP -2.952 (log10 mmHg)
* CC1(C)CC/C(=C\c2ccc(Cl)cc2)C1=O: bp 344.3 °C; logP (octanol/water) 4.3; log solubility -5.672 (log10 mol/L)
* C/N=C(\c1ccccc1Cl)C1(O)CCCC1: mp 62.4 °C; logP (octanol/water) 3.2; log solubility -2.945 (log10 mol/L); log VP -3.494 (log10 mmHg)
* CCOC(=O)CCC(C)=O: mp -17.5 °C; logP (octanol/water) 0.324
* C=CC(F)(F)C(F)(F)C(F)(F)C(F)(F)C(F)(F)C(F)(F)F: logP (octanol/water) 4.9; log solubility -5.456 (log10 mol/L)
* S=C(SSCCCCCCSSC(=S)N(Cc1ccccc1)Cc1ccccc1)N(Cc1ccccc1)Cc1ccccc1: mp 90.9 °C; logP (octanol/water) 10.4; log solubility -7.142 (log10 mol/L)
* CCCCCCCC[N+](C)(C)[O-]: bp 380 °C; log VP -4.949 (log10 mmHg)
* CCCCC[N+](=O)[O-]: bp 172 °C; log solubility -1.955 (log10 mol/L)
* CC(=O)Nc1ccc(NC(=O)c2cc3ccccc3cc2O)cc1: mp 270 °C; logP (octanol/water) 3.1; log solubility -5.25 (log10 mol/L)
* FC(F)C(F)(F)C(F)(F)C(F)(F)C(F)(F)C(F)(F)F: log solubility -5.329 (log10 mol/L); log VP 2.099 (log10 mmHg)
* CCc1nnc(NS(=O)(=O)c2ccc(N)cc2)s1: log solubility -1.94 (log10 mol/L); plasma fu 0.03
* CCC(=O)OCC(=O)OC(C)C1CCCC(C)(C)C1 (configuration not stated): logP (octanol/water) 4.46; log solubility -4.367 (log10 mol/L); log VP -3.401 (log10 mmHg)
* Cc1nccn1CCc1nc(N)nc(N)n1: mp 255 °C; logP (octanol/water) -0.06; log solubility -1.727 (log10 mol/L); log VP -8.803 (log10 mmHg)
* Clc1cc(Cl)c(Cl)c(-c2cc(Cl)c(Cl)c(Cl)c2)c1: logP (octanol/water) 7.47; log VP -4.983 (log10 mmHg)
* O=S(=O)(O)c1ccccc1: bp 189.1 °C; logP (octanol/water) -0.8
* CCCCC(CC)C(=O)OCC(COC(=O)C(CC)CCCC)(COC(=O)C(CC)CCCC)COC(=O)C(CC)CCCC (configuration not stated): mp 9 °C; log VP -8.639 (log10 mmHg)
* CCC[C@H]1CC[C@H](c2cccc(F)c2)CC1: mp -10 °C; bp 296.7 °C; log solubility -7.355 (log10 mol/L); log VP -3.854 (log10 mmHg)
* C=C(C)CC1CCCCCCCCCCC1=O (configuration not stated): mp -66 °C; bp 320.1 °C; log solubility -5.17 (log10 mol/L); log VP -3.401 (log10 mmHg)
* CC(=O)OCC(=O)[C@H]1[C@H](C)C[C@H]2[C@@H]3C[C@H](F)C4=CC(=O)CC[C@]4(C)[C@H]3CC[C@@]21C: mp 144 °C; logP (octanol/water) 3.31; log solubility -4.352 (log10 mol/L)
* Clc1cc(Cl)c(OCC#CI)cc1Cl: logP (octanol/water) 5.3; log solubility -4.779 (log10 mol/L)

Excerpt, the opening 2 entries:

SMILES	mp (°C)	bp (°C)	logP (octanol/water)	log solubility (log10 mol/L)	log VP (log10 mmHg)	plasma fu	hepatic Clint (µL/min/10^6 cells)
COC(=O)c1ccccc1C(=O)O	n/a	n/a	n/a	n/a	n/a	0.372	0
C=CC1COC(CC(C)C)O1 (configuration not stated)	n/a	176.8	2.5	-2.18	0.143	n/a	n/a